Test results published in patent US20240294525A1, “COMPOUNDS AS GLP-1 RECEPTOR AGONISTS AND USES THEREOF” (CGENETECH (SUZHOU, CHINA) CO., LTD., priority 2021, published 2024).

Sequences of proteins named here, by UniProt entry; tags and fusion partners are left off. Residues count along the entry.
UniProt P43220, 24-463 limits assumed: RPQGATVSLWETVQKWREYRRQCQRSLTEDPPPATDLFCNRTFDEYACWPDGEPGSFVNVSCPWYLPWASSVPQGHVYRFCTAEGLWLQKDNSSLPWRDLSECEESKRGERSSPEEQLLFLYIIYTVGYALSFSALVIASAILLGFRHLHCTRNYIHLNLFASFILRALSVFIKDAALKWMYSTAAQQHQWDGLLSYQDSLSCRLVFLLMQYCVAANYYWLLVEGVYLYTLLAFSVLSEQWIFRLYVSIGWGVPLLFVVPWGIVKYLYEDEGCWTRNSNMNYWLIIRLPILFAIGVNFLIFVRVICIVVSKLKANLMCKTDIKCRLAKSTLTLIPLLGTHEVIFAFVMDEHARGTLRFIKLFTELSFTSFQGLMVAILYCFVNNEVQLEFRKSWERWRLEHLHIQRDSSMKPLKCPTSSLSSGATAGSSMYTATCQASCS

How the values were obtained:
[1] = Oral pharmacokinetics in mice; format: in vivo; settings: male C57 mice, intragastric, 10 mg/kg
Protocol: Compounds 1, 2, 6, 7, 8, 9, 10, 11, 13, 17, 18, and 19 of the present application and a known control medicament PF-06882961 were subjected to a pharmacokinetic test by using the following experimental procedures:
Healthy male C57 mice (9 mice per compound, n=3), purchased from Shanghai Jihui Laboratory Animal Care Co., LTD, with an age of 6-8 weeks.
The mice were fasted overnight before oral administration, and drunk freely, and feeding was resumed after 4 h of the administration. According to the weight of the mice weighed before the administration, the administration dose was calculated. It was intragastrically administered, and the administration dose was 10 mg/kg. At 0.083 h, 0.25 h, 0.5 h, 1 h, 2 h, 4 h, 8 h, and 24 h after the administration to test animals, about 110 μL of whole blood were respectively collected from submandibular veins of the mice by a semi-continuous method, and placed in a test tube containing K2EDTA. The tube was placed on ice, and centrifuged within 30 min (2000 g, 5 min, 4° C.), plasma was collected, transferred to an appropriately labeled test tube, and frozen at −80° C. in a refrigerator.
A chromatographic column was Waters ACQUITY UPLC BEH C18 (2.1×50 mm, and 1.7 μm); mobile phase A: H2O-0.025% FA-1 mM NH4OAC, mobile phase B: ACN-0.025% FA-1 mM NH4OAC, flow rate: 0.60 mL/min, gradient elution program: start, 2% B, 0.2 min; 60% B, 0.7 min; 90% B, 1.50 min; 90% B, 2.0 min; 2% B, 2.01 min; 2.6 min, and stop; column temperature: 50° C.; and injection volume: 1 μL.
Mass spectrometry method: LC-MS/MS-49 (Triple Quad 6500+)(SCIEX, USA), the ion source was an ESI source, the detection mode was positive ion detection, and the scanning mode was a multi-reaction monitoring (MRM) mode, m/z: 446.20/321.10 Da (Glipizide, internal standard).
10 μL of a plasma sample was taken and 200 μL of an internal standard working solution (Glipizide, 50 ng/mL) was added, vortex was performed for 1 min, then the mixture was centrifuged at 5800 rpm for 10 min. 70 μL of a supernatant was transferred to a 96-well plate, and 1 μL of the supernatant was taken and injected into LC-MS/MS for analysis.
Pharmacokinetic (PK) parameters were calculated by using Phoenix WinNonlin 7.0; and the oral pharmacokinetic parameters of the mice, including AUC, Cmax, Tmax, T1/2 and the like, were estimated by using a non-compartmental model. Results of the oral pharmacokinetic parameters of Compounds 1, 2, 6, 7, 8, 9, 10, 11, 13, 17, 18, and 19 and PF-06882961 in the mice are shown in Table 2. PGP-46 T2

[2] = biological target: GLP-1R (Homo sapiens, UniProt P43220); assay: GLP-1R cAMP experiment (HTRF cAMP agonist detection); format: cell-based; settings: GLP-1R-HEK293 cells

AUC(0-t) [1] [ng·h/mL]	AUC(0-∞) [1] [ng·h/mL]	Cmax [1] [ng/mL]	MRT(0-t) [1] [h]	MRT(0-∞) [1] [h]	T1/2 [1] [h]	Tmax [1] [h]	EC50 [2] [pM]	Compound	half-life (T1/2) and/or overall exposure (AUC) compared with PF-06882961 [1]
4152.0	4383.0	1763.0	1.8	2.3	2.1	0.50	360	C#Cc1ccc(COc2cccc(N3CCN(Cc4nc5ccc(C(=O)O)nc5n4C[C@@H]4CCO4)CC3)n2)c(Cl)c1	longer half-lives (T1/2) and/or higher overall exposure doses (AUC)
							1300	C#Cc1ccc(COc2nc(N3CCN(Cc4nc5ccc(C(=O)O)nc5n4C[C@@H]4CCO4)CC3)ccc2F)c(C)c1	
3587.0	3596.0	2960.0	1.7	1.7	3.1	0.25		C#Cc1ccc(COc2cccc(N3CCN(Cc4nc5c(F)cc(C(=O)O)cc5n4C[C@@H]4CCO4)CC3)n2)c(F)c1	longer half-lives (T1/2) and/or higher overall exposure doses (AUC)

Compound	AUC(0-t) [1] [ng·h/mL]	AUC(0-∞) [1] [ng·h/mL]	Cmax [1] [ng/mL]	MRT(0-t) [1] [h]	MRT(0-∞) [1] [h]	T1/2 [1] [h]	Tmax [1] [h]	EC50 [2] [pM]	half-life (T1/2) and/or overall exposure (AUC) compared with PF-06882961 [1]
C#Cc1ccc(COc2nc(C3CCN(Cc4nc5ccc(C(=O)O)cc5n4C[C@@H]4CCO4)CC3)ccc2F)c(F)c1								570	
